Amino acid sequences for entries named in this document (tags omitted).
UniProt D6N9X1, entry or part of it V150M: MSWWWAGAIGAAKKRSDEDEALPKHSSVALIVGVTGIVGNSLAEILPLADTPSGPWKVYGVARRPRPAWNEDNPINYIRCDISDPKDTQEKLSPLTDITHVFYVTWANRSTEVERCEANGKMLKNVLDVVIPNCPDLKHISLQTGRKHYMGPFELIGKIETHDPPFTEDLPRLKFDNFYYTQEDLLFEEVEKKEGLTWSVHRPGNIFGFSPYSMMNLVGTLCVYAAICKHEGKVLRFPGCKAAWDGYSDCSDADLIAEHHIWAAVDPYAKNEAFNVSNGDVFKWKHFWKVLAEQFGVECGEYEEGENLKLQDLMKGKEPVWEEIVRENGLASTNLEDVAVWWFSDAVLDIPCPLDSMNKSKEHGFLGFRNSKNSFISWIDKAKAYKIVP

In article PMC6172241, “A multisubstrate reductase from Plantago major: structure-function in the short chain reductase superfamily” (Scientific Reports, 2018):

Biological target: PmMOR (P. major multisubstrate oxido-reductase) (Plantago major, UniProt D6N9X1, V150M)
Assay: crystal structure
Settings: ternary complex with NADP+, 1.46 Å; two citral conformations; geranial/neral mixture

SMILES: CC(C)=CCC/C(C)=C/C=O (mixture of isomers) [citral]
- crystal structure: 5MLH, 5MLR, 5MLM and 6GSD for PmMOR/NADP^+/8-oxogeranial, PmMOR^V150M/NADP^+/citral
